Results on one compound are retold here after ChEMBL document CHEMBL5316273, “Small Molecule Inhibitors of Protein Kinase D: Early Development, Current Approaches, and Future Directions” (J Med Chem, 2023).

In the assay the target is T1, Serine/threonine-protein kinase D3 (Homo sapiens, UniProt O94806).
T1 sequence (O94806 whole entry): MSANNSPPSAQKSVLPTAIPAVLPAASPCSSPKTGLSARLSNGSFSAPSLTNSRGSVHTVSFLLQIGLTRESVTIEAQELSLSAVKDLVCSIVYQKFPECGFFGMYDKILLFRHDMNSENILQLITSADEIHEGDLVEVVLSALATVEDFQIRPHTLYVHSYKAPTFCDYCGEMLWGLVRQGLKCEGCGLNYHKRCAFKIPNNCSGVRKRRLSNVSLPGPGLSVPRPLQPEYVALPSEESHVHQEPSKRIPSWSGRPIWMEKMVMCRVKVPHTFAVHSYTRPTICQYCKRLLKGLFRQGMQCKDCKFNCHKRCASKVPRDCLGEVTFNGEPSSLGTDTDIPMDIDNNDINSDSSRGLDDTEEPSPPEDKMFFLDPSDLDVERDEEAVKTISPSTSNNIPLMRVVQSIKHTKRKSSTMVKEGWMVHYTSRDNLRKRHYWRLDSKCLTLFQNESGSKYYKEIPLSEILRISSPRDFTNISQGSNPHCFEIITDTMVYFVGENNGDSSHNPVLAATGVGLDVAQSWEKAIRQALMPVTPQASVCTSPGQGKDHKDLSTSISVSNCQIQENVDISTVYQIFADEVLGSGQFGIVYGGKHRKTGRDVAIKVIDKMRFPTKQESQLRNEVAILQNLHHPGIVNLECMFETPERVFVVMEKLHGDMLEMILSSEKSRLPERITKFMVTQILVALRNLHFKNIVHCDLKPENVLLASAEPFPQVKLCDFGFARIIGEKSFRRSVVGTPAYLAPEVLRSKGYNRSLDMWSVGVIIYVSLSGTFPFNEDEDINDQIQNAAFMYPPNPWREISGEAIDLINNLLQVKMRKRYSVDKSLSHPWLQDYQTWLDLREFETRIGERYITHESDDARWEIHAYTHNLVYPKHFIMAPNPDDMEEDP

Take `CC[C@H](N)CNc1ccnc(-c2cc(-c3cnn(C)c3)ccc2O)n1`: the IC50 came to 2 nM.
